## scFv variants of Ab-14 (light chain) against a SARS-CoV-2 spike peptide

Values reported by Li et al. 2023, doi:10.1038/s41467-023-39022-2 (FLAb copy).

Antigen: PDVDLGDISGINAS, a 14-residue peptide of the SARS-CoV-2 spike HR2 region.

The variants keep the heavy chain, the linker and the frameworks of Ab-14 (scFv order VH, three GGGGS repeats, VL).
VH: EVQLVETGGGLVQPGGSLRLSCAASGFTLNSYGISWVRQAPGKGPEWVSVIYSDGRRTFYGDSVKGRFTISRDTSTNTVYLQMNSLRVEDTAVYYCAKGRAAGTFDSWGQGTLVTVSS
VL: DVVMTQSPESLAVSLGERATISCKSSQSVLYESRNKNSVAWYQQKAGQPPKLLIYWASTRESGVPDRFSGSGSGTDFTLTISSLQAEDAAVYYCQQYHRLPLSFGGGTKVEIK

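The parent was found by panning a naive human phage display library on the peptide. Designed CDR sequences, proposed from the first random library and measured here. Group labels follow the data file (En: ensemble of fine-tuned language models; GP: Gaussian process model; HC: hill climbing; Gen: genetic algorithm; Gibbs: Gibbs sampling; a sequence that several methods proposed may carry one label only). Affinity was read by AlphaSeq, a pooled yeast mating assay with surface-displayed partners. Binding brings cells together so that they mate, and sequencing counts the barcode pairs among the diploids. A regression on co-assayed BCL2-family reference pairs converts the normalised counts of each replicate to an apparent Kd. Mating was done six times.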

Each variant is given by its three light chain CDRs, as the data file delimits them; those of the parent are KSSQSVLYESRNKNSVA, WASTRES, QQYHRLPLS.
Variants here have more than six changes.
The Kd shown is the geometric mean over detected replicates; a lower Kd is a better binder.
Where no diploid with the target was found in any replicate, the entry reads "no signal": below detection, most likely a poor binder, though not proof of it.

CDR-L1	CDR-L2	CDR-L3	group	apparent Kd	detected
MISQLYNMGQFAINSVA	QASTRNE	QQYERLPLM	En_Gen	2.1 nM	6 of 6
KLSFMVMEESRNKNSVA	SASLREW	QQYHRLPLS	GP_Gibbs	170 nM	1 of 6
TISQMTSLFSQSINNVA	EVSTREN	QQYDRLPLA	En_Gen	8.5 nM	6 of 6
SIFHGDELYGQNERNIA	DVQARIV	QQYTRLPLH	En_Gibbs	1.3 nM	6 of 6
KAQQSVGYGERNSNSVA	EASKRES	QQYHRLPLS	GP_Gibbs	2.6 nM	6 of 6
KLYSNVGTMSHNKQSIA	DMERRED	QQYHRLPLS	En_HC	610 pM	6 of 6
KIDISELGVSRNKNSVA	NASTRME	QQYHRLPLS	GP_Gibbs	5.3 nM	6 of 6
MISQLFMYGSRNYNSIA	QAETREK	QQYDRLPLE	En_HC	62 nM	6 of 6
KMWDYEYGTWAMNSAIA	NASLESD	QQYDRLPLT	En_Gibbs	23 nM	6 of 6
KLSKMVMEGSRNKNSVA	EASQREE	QQYHRLPLS	GP_Gibbs	430 pM	6 of 6
TLMHHQDYQDEWKKSIA	NAIIKER	QQYSRLPLA	En_Gibbs	55 nM	6 of 6
KFSQSYLYEDRAKNSVA	NASTRLW	QQYHRLPLS	GP_Gibbs	1.5 nM	6 of 6
KFSQSVDYLSRNMNNVA	NASTRES	QDYHRLPLS	GP_Gibbs	690 pM	6 of 6
KLREVQHLETKQRNNVA	DNDTRES	QDYYRLPLS	En_HC	no signal	0 of 6
MLSEVLHMLGVQKNSIA	DLVLRAN	QQYHRLPLF	En_Gen	no signal	0 of 6
SLDHDVGYDTHNDKNIA	AETRVDR	QQYAHLPLS	En_Gibbs	13 nM	6 of 6
KIRVQQYSQSEMESNIA	GESVRHQ	QQYFHLPLS	En_Gibbs	26 nM	6 of 6
VYNLPFEGVQPKKYSIA	NAEIREI	QQYFRLPIL	En_Gibbs	35 nM	6 of 6
HTQHLGFGDPYHWNNVA	DVSQVCS	QQYARLPLT	En_Gibbs	890 pM	6 of 6
KFSQSVMFMSGVYNSVA	QMSTRAE	QQYNRLPLS	En_HC	600 pM	6 of 6
KLMGSMLYEQRMKNSVA	QASQRMS	QQYHRLPLS	GP_Gibbs	4.1 nM	6 of 6
QINVDRLMNYLSNDAIA	GKTLRVD	QQYMRLPLS	En_Gibbs	1.1 nM	6 of 6
QVFFDLFEQGKRSQPIA	GGSMRET	QQYARLPLI	En_Gibbs	1.7 nM	6 of 6
KLGYNTGQESFRKDNIA	DVRDREE	QQYHRLPLS	En_Gen	4.2 nM	6 of 6
KISYMGEHFSTNHSAIA	QAETREQ	QQYHRLPIS	En_HC	12 nM	6 of 6
TIGQMINGESRNRNSVA	QASTRES	QSYDRLPLS	En_HC	7.0 nM	6 of 6
KLIQSVAMLSRNKNSIA	DNSTRES	QQYHRLPLS	En_HC	16 nM	6 of 6
NISQMIFMETKHVNNVA	QTSTREE	QDYHRLPLS	En_HC	no signal	0 of 6
TVGQVTMVESYNKDSVA	QATTRLE	QDYHRLPLS	En_HC	2.0 nM	6 of 6
MISQSFLIGSRAKNSVA	QTSTREQ	QQYDRLPLS	En_HC	1.2 nM	6 of 6
MLSQMWALGMKASNSVA	QASMRFN	QQYHRLPLM	En_Gen	no signal	0 of 6
QLMFKEATGMNNAYNVA	EAEYSGT	QQYSQLPLG	En_Gibbs	no signal	0 of 6
MIAGSMESQEANQAPVA	SATCKEP	QQYSRLPLM	En_Gibbs	3.7 nM	6 of 6
MFSQSVMYGSFMRNSVA	QTSTRES	QQYDRLPLS	En_HC	66 nM	5 of 6
KVSQSMLYESRNANSVA	NASQRLE	QQYHRLPLS	GP_Gibbs	1.6 nM	6 of 6
KFSYSNPYETRNKNSVA	EASQREE	QQYHRLPLS	GP_Gibbs	1.6 nM	6 of 6
TISQVMNTLTRHGNNVA	DLQNREN	QQYYRLPLS	En_Gen	16 nM	6 of 6
KLQQSRLMEERNSNSVA	SASLRES	QQYHRLPLS	GP_Gibbs	1.6 nM	6 of 6
HMSMLTLQGMRHKNSVA	QMTTREN	QQYDRLPLS	En_Gen	140 nM	6 of 6
NLGGEDFQDTRGMAAVA	DVSEVGD	QHYSRLPLS	En_Gibbs	68 nM	6 of 6
QLHAYTQGFKRADASIA	EISYRAI	QQYGRLPLS	En_Gibbs	150 nM	1 of 6
KVSPSVLGEMRNDNSVA	NASTRRS	QQYHRLPLS	GP_Gibbs	7.5 nM	6 of 6
TLMFDGEQEDSENKAIA	DAIHKGV	QQYNRLPLT	En_Gibbs	19 nM	6 of 6
KIYAMTMLESHDKNSIA	DLSTRGN	QQYHRLPLS	En_HC	230 nM	6 of 6
MISQIYNMGQFAINSVA	QASLRND	QQYDRLPLM	En_Gen	130 nM	6 of 6
QISLNGWDGEPYEYAVA	EGSIADA	QQYSRLPLS	En_Gibbs	43 nM	4 of 6
HMDLAVAGKTRDMNSIA	NTSARDA	QQYYRFPLI	En_Gibbs	18 nM	6 of 6
SLYDATTMESRNKNPIA	DVSTRPS	QQYHRLPLS	En_HC	1.2 nM	6 of 6
TLTQVQGMESHNADSVA	DLSTRGS	QQYHRLPLS	En_HC	3.5 nM	6 of 6
TISQMSQLFSQTINNVA	EVSTRLN	QQYDRLPLM	En_Gen	8.2 nM	6 of 6
TLYMGPTEARDSKHAIA	DNNERDR	QQYHRLPLV	En_Gibbs	2.8 nM	6 of 6
ILSQSVLMGMHTKNSVA	QATLRFN	QQYHRLPFM	En_HC	120 nM	5 of 6
KLESRQYHFGADHQNIA	DAHISMN	QQYMHLPFT	En_Gibbs	6.9 nM	6 of 6
KIGHGLTTESRNRNSVA	QTETRES	QHYHRLPLS	En_HC	5.6 nM	6 of 6
SLGLATMLEEYVRNSVA	NNSTRED	QQYDRLPLS	En_Gen	230 nM	2 of 6
MLSDLVKMGSRNTNSVA	DNSTRGA	QQYDRLPLS	En_HC	88 nM	2 of 6
HMSMLTLQGLRHRNSVA	QMTTREN	QQYDHLPLS	En_Gen	10 nM	6 of 6
TISELYNQALGMRNNVA	NNQTRED	QQYNRLPLS	En_Gen	18 nM	6 of 6
HVTMELAEEKNSYRNIA	DASMRLA	QQYVRLPLG	En_Gibbs	1.8 nM	6 of 6

Top 8 of the variants detected in all replicates, tightest first:

CDR-L1,CDR-L2,CDR-L3,group,apparent Kd,detected
KLSKMVMEGSRNKNSVA,EASQREE,QQYHRLPLS,GP_Gibbs,430 pM,6 of 6
KFSQSVMFMSGVYNSVA,QMSTRAE,QQYNRLPLS,En_HC,600 pM,6 of 6
KLYSNVGTMSHNKQSIA,DMERRED,QQYHRLPLS,En_HC,610 pM,6 of 6
KFSQSVDYLSRNMNNVA,NASTRES,QDYHRLPLS,GP_Gibbs,690 pM,6 of 6
HTQHLGFGDPYHWNNVA,DVSQVCS,QQYARLPLT,En_Gibbs,890 pM,6 of 6
QINVDRLMNYLSNDAIA,GKTLRVD,QQYMRLPLS,En_Gibbs,1.1 nM,6 of 6
MISQSFLIGSRAKNSVA,QTSTREQ,QQYDRLPLS,En_HC,1.2 nM,6 of 6
SLYDATTMESRNKNPIA,DVSTRPS,QQYHRLPLS,En_HC,1.2 nM,6 of 6

Values of this round are not directly comparable with the first-round values of the same sequences.
The parent sequence was in this pool as ten entries: three were never detected, three once, and four in most replicates, with averages from 2.2 nM to 240 nM.
The authors averaged sequences with at least three values out of six and counted those with two or fewer as poor binders.
Nonspecific signal, from three strains lacking the peptide, appeared in 4% of pairings of all light chain designs, centred on 430 nM (5% of these signals below 38 nM); values are not corrected for it.